## Antibody variant affinities, Ab-14 heavy chain, assay B

Data: MIT Lincoln Laboratory AlphaSeq set, Li et al. 2023, doi:10.1038/s41467-023-39022-2, as distributed in FLAb.

Binding partner: SARS-CoV-2 spike HR2 peptide, sequence PDVDLGDISGINAS.

Ab-14 is the parent antibody, in scFv form: VH, then three GGGGS repeats, then VL. The light chain is unchanged in all variants.
VH: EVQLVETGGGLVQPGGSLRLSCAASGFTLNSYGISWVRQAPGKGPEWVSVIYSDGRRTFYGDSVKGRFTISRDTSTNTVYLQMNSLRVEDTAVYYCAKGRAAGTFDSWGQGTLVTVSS
VL: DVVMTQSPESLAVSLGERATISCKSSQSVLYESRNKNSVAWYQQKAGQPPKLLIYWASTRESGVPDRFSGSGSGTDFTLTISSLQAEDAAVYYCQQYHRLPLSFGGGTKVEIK

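This is the validation round: designs drawn from the data on random variants, tested in the same kind of assay. Group labels follow the data file (Ctrl: baseline library sampled from a position-specific scoring matrix, with some repeated check sequences; Rand: our label for a block that the file lists under HC and that is probably the random mutants of the ten best first-round binders; En: ensemble of fine-tuned language models; GP: Gaussian process model; GPLM: also part of the Gaussian process libraries; HC: hill climbing; Gen: genetic algorithm; Gibbs: Gibbs sampling; a sequence that several methods proposed may carry one label only). The scFvs were displayed on barcoded MATa yeast, the peptide on MATalpha yeast. Binding brings cells together so that they mate, and sequencing counts the barcode pairs among the diploids. The ratio of observed to expected reads was calibrated, replicate by replicate, on BCL2-family standards whose Kd was known from biolayer interferometry. Mating was done six times.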

Variants are written as CDR1, CDR2 and CDR3 of the heavy chain (limits as in the source). Parent: GFTLNSYGIS, VIYSDGRRTFYGDSVK, GRAAGTFDS. The Kd shown is the geometric mean over detected replicates; a lower Kd is a better binder. "nd" means that the variant was in the library but no mating with the target was seen in any replicate; the authors take this as a sign of poor binding, and no number exists. Order: sorted from the lowest average up, undetected variants last. The parent sequence was in this pool as ten entries: three were never detected, three once, and four in most replicates, with averages from 2.2 nM to 240 nM. Background: pairings of all heavy chain designs with three empty control strains gave a value in 1% of cases (median 120 nM, 5th percentile 7.0 nM). Values in that range, when seen in few replicates, are hard to tell from nonspecific mating. Also given: how often the same scFv was detected with the empty control strains. The range of this assay differs from that of the first round, and the authors advise against merging the two. The authors' rule: three or more of the six replicates give a measured affinity, fewer mean a poor binder.

CDR-H1	CDR-H2	CDR-H3	group	Kd (apparent)	seen in	control signals
GFDLNEYGIS	VIYADGRRTFYTDSVK	GEFAGTFDM	En_HC	130 pM	6/6	0/18
GFNLNEYGIS	VIYADGMRTFYADSVK	GEHAGSFDI	En_HC	200 pM	6/6	0/18
GFDLNEYGIS	VIYADGMRTAYTDSVK	GTNAGTFDV	En_Gen	230 pM	6/6	0/18
GFSLNDYGIS	VIYSDGRRTFYGDSVK	GRQAGTFIS	GPLM_HC	230 pM	6/6	0/18
GFDLDEYGIS	VIYADGMRTFYADSVK	GNIAGTFSS	En_HC	240 pM	6/6	1/18
GFDLNEYGIS	VIYADGMRKAYVDSVK	GENAGTFDV	En_Gen	260 pM	6/6	0/18
GFDLDEYGIS	VIYADGRRTAYADSVK	GNTAGTFDL	En_Gen	260 pM	6/6	0/18
GFDLNEYGIS	VIYADGMRTFYTDDVK	GEVAGTFDL	En_HC	260 pM	6/6	0/18
GFDLDEYGIS	VIYADGRRTAYTDSVK	GEVAGTFDL	En_Gen	270 pM	6/6	0/18
GFDLDEYGIS	VIYADGMRTFYADSVK	GTNAGTFDV	En_Gen	290 pM	6/6	1/18
GFDLDEYGIS	VIYADGRRTFYQDDVK	GNVAGTFDV	En_HC	380 pM	6/6	0/18
GFDLNEYGIS	VIYSDGRRTFYGDSVK	GKAAGTFDT	GP_Gibbs	420 pM	6/6	0/18
GFDLNEYGIS	VIYADGMRTFYADSVK	GNVAGTFFS	En_HC	430 pM	6/6	0/18
GFDLNEYGIS	VIYADGMRTFYADSVK	GNVAGTFDA	En_Gen	430 pM	6/6	0/18
GFDLNEYGIS	VIYADGMRTAYTDDVK	GEVAGTFDL	En_Gen	440 pM	6/6	0/18
GFDLNEYGIS	VIYADGRRTFYSDSVK	GNVGGSFDM	En_HC	520 pM	6/6	0/18
GFTLNSYGIS	VIYSDGRRTFYSDSVK	GQTAGTFDK	GP_Gibbs	520 pM	6/6	0/18
GFDLEDYGIS	VIYADGRRTFYSDSVK	GEIAGTFDL	En_HC	660 pM	6/6	0/18
GFDLDEYGIS	VIYADGSRTAYADDVK	GENAGTFDV	En_Gen	750 pM	6/6	1/18
GFPLNSYGIS	VIYSDGRRTFYDDSVK	GQTAGTFDS	GP_HC	890 pM	6/6	0/18
GFDLNEYGIS	VIYADGIRTAYADDVK	GNVAGTFDV	En_Gen	960 pM	6/6	0/18
GFTLDQYGIS	VIYSDGRRTFYSDSVK	GKAAGTFDS	GPLM_HC	960 pM	6/6	0/18
GFDLNEYGIS	VIYADGQRTAYADDVK	GNEAGTFDV	En_Gen	1.0 nM	6/6	0/18
GFDLNEYGIS	VIYADGQRTYYADSVK	GENAGTFDM	En_Gen	1.1 nM	6/6	0/18
GFDLNSYGIS	VIYSDGRRTFYGDSVK	GRTAGSFDV	GP_Gibbs	1.5 nM	6/6	1/18
GFDLNEYGIS	VIYADGKRTFYADSVK	GEIAGTFDQ	En_HC	1.5 nM	6/6	0/18
GFTLNEYGIS	VIYSDGMRTFYGDSVK	GRNAGTFDS	GP_Gen	1.6 nM	6/6	0/18
GFSLNWYGIS	VIYSDGRRTFYSDSVK	GEAAGTFDS	GPLM_Gen	1.8 nM	6/6	0/18
GFDLNEYGIS	VIYADGRRTFYIDSVK	GEIAGTFIM	En_HC	1.9 nM	5/6	0/18
GFQLEEYGIS	VIYADGRRAAYADDVK	GQGNVIAGG	En_Gibbs	1.9 nM	6/6	1/18
GFLLNDYGIS	VIYSDGRRTFYKDSVK	GRTAGTFDS	GP_HC	1.9 nM	6/6	0/18
GFSLNSYGIS	VIYSDGRRTFYADSVK	GTQAGTFDS	GPLM_Gen	2.0 nM	5/6	0/18
GFELNSYGIS	VIYSDGKRTFYGDSVK	GRNAGTFDS	GP_Gen	2.0 nM	6/6	1/18
GFDLNEYGIS	VIYSDGRRTFYGDSVK	GQAAGTFDQ	GP_HC	2.5 nM	6/6	0/18
GFTLNSYGIS	VIYADGRRTFYSDSVK	GRAGGTFDS	Rand	2.7 nM	6/6	1/18
GFSLDEYGIS	VIYADGRRTAYADSVK	GNSAGTFDS	En_HC	3.1 nM	6/6	0/18
GFDLNEYGIS	VIYADGRRTSYIDSVK	GETAGTFDS	En_HC	3.6 nM	6/6	0/18
GFDLDEYGIS	VIYADGMRTVYADSVK	GGNAGTFDV	En_Gen	4.0 nM	5/6	0/18
KFELNSYGIS	VIYSDGRRTFYADSVK	GQTAGTFDS	GP_Gen	4.2 nM	2/6	0/18
GFSLESYGIS	VIYSDGRRTFYGDSVK	GQAAGTFDS	GPLM_Gen	4.4 nM	6/6	0/18

The remaining entries, values ahead:

Kd (apparent)	seen in	control signals	CDR-H1	CDR-H2	CDR-H3	group
5.0 nM	6/6	0/18	GFLLNDYGIS	VIYSDGRRTFYGDSVK	GTAAGTFDS	GP_HC
5.7 nM	6/6	0/18	GFSLNDYGIS	VIYSDGRRTFYGDSVK	GQAAGTFDL	GP_Gibbs
5.8 nM	1/6	0/18	GFDLDEYGIS	VIYADGLRTAYADDVK	GENAGTFDV	En_Gen
6.1 nM	4/6	1/18	GFWLNEYGIS	VIYSDGRRTFYIDSVK	GKAAGTFDT	GP_Gibbs
6.3 nM	6/6	1/18	AFTLESYGIS	VIYADGRRTFYGDSVK	GRAAGTFDS	GP_HC
6.4 nM	6/6	4/18	GFQLNSYGIS	VIYSDGRRTFYGDSVK	GTAAGTFDL	Ctrl
8.7 nM	6/6	1/18	GYTLNSYGIS	VIYSDGRRTFYSDSVK	GRAAGTFDS	Ctrl
9.8 nM	6/6	1/18	GFDLNSYGIS	VIYSDGRRTFYGDSVK	GQAAGTFDN	GPLM_Gibbs
9.9 nM	6/6	1/18	GFDLNSYGIS	VIYSDGRRTFYLDSVK	GQIAGTFDS	GP_HC
12 nM	6/6	0/18	GFNLNSYGIS	VIYSDGRRTFYVDSVK	GHVAGTFDS	GP_Gibbs
13 nM	6/6	0/18	GFSLNEYGIS	VIYSDGRRTFYGDSVK	GRAAGTFDE	GPLM_Gen
17 nM	5/6	0/18	GFSLNWYGIS	VIYSDGRRTFYIDSVK	GHAAGTFDS	GPLM_Gibbs
25 nM	6/6	0/18	GFWLNEYGIS	VIYSDGRRTFYEDSVK	GRAAGTFDS	Ctrl
40 nM	5/6	0/18	GFSLNSYGIS	VIYSDGRRTFYGDSVK	GKAAGTFDN	GPLM_Gen
46 nM	4/6	0/18	GETLNDYGIS	VIYSDGRRTFYGDSVK	GRAAGTFDS	Ctrl
75 nM	4/6	0/18	GFWLNEYGIS	VIYSDGRRTFYGDSVK	GRTAGTFDF	GP_Gen
94 nM	3/6	0/18	GFTLNSYGIS	VIYSDGRRTFYSEKVK	GDAAGTFDS	Ctrl
180 nM	2/6	2/18	GFDLSEYGIS	VIYADGVRTAYADSVK	GENAGTFDV	En_Gen
230 nM	3/6	3/18	EFDLNEYGVS	VIYADGHRTFYADHVK	GTEAGVFFD	En_Gibbs
400 nM	2/6	1/18	GITLNSYGIS	VIYSDGRRTFYGDSVK	GRAAGTFDS	Ctrl
nd	0/6	0/18	GFTWDSYGIP	VIYSDGRRTFYGDSVK	GRAAGTALS	Rand
nd	0/6	0/18	GFDLNEYGIS	VIYADGQRTFYADSVK	GTNAGTFDV	En_Gen
nd	0/6	0/18	GFTLNSYGIS	VIYSDGRRTFYGDSVK	GRAALQFDS	Ctrl
nd	0/6	0/18	GFTLNDYGIS	VIYSDGRRTFYGDSVK	GRAAGTFWD	GPLM_HC
nd	0/6	0/18	GFTLNQYGIS	VIYSDGRRTFYADSVK	GRAAVTFDS	GP_HC
nd	0/6	0/18	EFQIQDYGIS	VIYADGSRTAYAESVK	GNIGGTIST	En_Gibbs
nd	0/6	1/18	GFDLNSYGIS	VIYLDGRRTFYGDSVK	GRAAGWFNS	Rand
nd	0/6	0/18	GFTLNSYGIS	VIYSDGRRTFYGDSVK	GRAAGTKHS	Ctrl
nd	0/6	0/18	GFTLNSYGIS	VIYADGRRTFYGDSVK	GRAAQTFRS	Ctrl
nd	0/6	0/18	GFSLDEYGIS	VIYADGVRRSYNDNVK	GFNGEVSIV	En_Gibbs
nd	0/6	0/18	GFTLNSYGIS	VIYSDGRRTFYDDSVK	GQLAGTFDF	GPLM_HC
nd	0/6	0/18	GFTLNQYGIS	VIYSDGRRTIYSDIVK	GRAMGFFDS	Rand
nd	0/6	0/18	GFDIQDYGIS	VIYADGSRTAYVNSVK	GEWGATLDV	En_Gibbs
nd	0/6	0/18	GFTLNSYGIS	VIYSDGRRTFYSDSVK	GKASGTSDS	Ctrl
nd	0/6	0/18	GFGLDEFGIS	VIYADGQRTAYLDSFK	GENSNAVDT	En_Gibbs
nd	0/6	0/18	GFCLNEYGIS	VIYSDGRRTFYSDSTK	GSAAGTFTV	Ctrl
nd	0/6	0/18	GFDLNTGGIS	VIYSDGRRTFYGDSVK	GRAAAWFNS	Rand
nd	0/6	0/18	GFWLDEYGIS	VIYADGKRVAYINSVK	GQFTYNNDV	En_Gibbs
nd	0/6	1/18	GFTLNEYGIS	VIYSDGRRTFYGESVK	GRAAVTFDV	GP_HC
nd	0/6	0/18	GFDLDQYGIS	VIYADGMRSVYADDVK	GHEGGIFLV	En_Gibbs